Experimental data as given in ChEMBL document CHEMBL1127540, “Three-dimensional pharmacophores from binding data” (J Med Chem, 1994).

These molecules were tested against Human immunodeficiency virus type 1 protease (Human immunodeficiency virus 1, UniProt Q72874) (assay: Binding affinity to HIV-1 protease).

Structure (SMILES)	Ki [µM]
CC[C@H](C)[C@H](NC(=O)[C@H]1CCCN1C(=O)[C@@H](O)[C@@H](Cc1ccccc1)NC(=O)OC(C)(C)C)C(=O)N[C@H](C(=O)OC)C(C)C	389
CC[C@H](C)[C@H](NC(=O)[C@H]1CCCN1C[C@H](O)[C@H](Cc1ccccc1)NC(=O)[C@H](CC(N)=O)NC(=O)[C@H](CC(C)C)NC(C)=O)C(=O)OC	4.57
CC[C@H](C)[C@H](NC(=O)[C@H]1CCCN1C(=O)[C@@H](O)[C@H](Cc1ccccc1)NC(=O)OC(C)(C)C)C(=O)N[C@H](C(=O)OC)C(C)C	39.8
CC[C@H](C)[C@H](NC(=O)[C@H]1CCCN1C(=O)[C@H](O)[C@@H](Cc1ccccc1)NC(=O)OC(C)(C)C)C(=O)N[C@H](C(=O)OC)C(C)C	347
CC[C@H](C)[C@H](NC(=O)[C@H]1CCCN1C(=O)[C@H](O)[C@H](Cc1ccccc1)NC(=O)OC(C)(C)C)C(=O)N[C@H](C(=O)OC)C(C)C	363
